Our source for the inhibition values is ChEMBL document CHEMBL4482311, “Modulators of Prostate-Specific G-Protein Receptor (PSGR/OR51E2) and Methods of Using Same” (2018).

The structures appear in SMILES notation. Calls of active or inactive are those of the source. The rule behind the calls is not given here.

The experiment addresses T1, Olfactory receptor 51E2 (Homo sapiens) (UniProt Q9H255).
T1 sequence (whole entry): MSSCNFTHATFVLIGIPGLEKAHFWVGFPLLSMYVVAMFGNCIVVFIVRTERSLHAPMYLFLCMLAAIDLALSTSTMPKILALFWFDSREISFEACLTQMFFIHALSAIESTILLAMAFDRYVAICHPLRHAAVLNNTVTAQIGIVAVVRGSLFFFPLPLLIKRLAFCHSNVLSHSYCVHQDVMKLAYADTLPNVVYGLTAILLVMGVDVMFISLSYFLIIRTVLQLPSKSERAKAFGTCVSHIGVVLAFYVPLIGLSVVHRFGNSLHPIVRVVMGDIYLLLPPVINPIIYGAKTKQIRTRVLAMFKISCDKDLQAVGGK
Conditions: LNCaP, 10 uM.

With `CC1=C(/C=C/C(C)=C/C=C/C(C)=C\C(=O)O)C(C)(C)CCC1`, the inhibition entry is “Active”.
